# In PubChem BioAssay AID2305 (GlaxoSmithKline (GSK), 2010):
# System: P. falciparum 3D7 growth, pLDH absorbance
# Test: P. falciparum 3D7 growth inhibition, dose response, strain 3D7 (AID 2305)
structure (smiles),measurement,value
COc1cc(C(=O)NC(SC2=NCCS2)C(Cl)(Cl)Cl)cc(OC)c1OC (stereo unspecified),IC50,980 nM
